Drawing on paper PMC5013544 (Blood cells, molecules & diseases, 2015), this text covers Kd for one molecule.

In the assay the target is T1, human cdb3-eGFP fusion protein containing human cdb3 residues 1–379 (human, UniProt P02730 1-379).
T1 sequence (looked up): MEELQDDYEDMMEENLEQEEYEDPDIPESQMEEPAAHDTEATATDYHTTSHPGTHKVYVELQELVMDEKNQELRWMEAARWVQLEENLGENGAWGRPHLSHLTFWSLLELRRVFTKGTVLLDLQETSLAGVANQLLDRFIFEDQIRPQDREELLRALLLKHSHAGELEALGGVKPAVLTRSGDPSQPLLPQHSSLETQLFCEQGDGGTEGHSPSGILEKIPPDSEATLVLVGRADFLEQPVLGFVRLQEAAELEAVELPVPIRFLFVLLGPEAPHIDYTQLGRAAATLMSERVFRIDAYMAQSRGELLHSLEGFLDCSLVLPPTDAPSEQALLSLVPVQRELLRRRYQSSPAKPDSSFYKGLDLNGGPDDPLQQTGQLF
As to the kind of experiment: FRET or BRET.

B1: human erythrocyte hemoglobin (complex)
chain 1: not shown
chain 2: not shown
B1 yielded a Kd of 180 nM.

The term Kd denotes the concentration at which binding is half-saturated. A low value points to a tighter complex.
